Reference: article PMC4368451 (Cancer chemotherapy and pharmacology, 2015)

Chains of the proteins cited; added tags and fusions are not shown.
UniProt Q92769, whole entry: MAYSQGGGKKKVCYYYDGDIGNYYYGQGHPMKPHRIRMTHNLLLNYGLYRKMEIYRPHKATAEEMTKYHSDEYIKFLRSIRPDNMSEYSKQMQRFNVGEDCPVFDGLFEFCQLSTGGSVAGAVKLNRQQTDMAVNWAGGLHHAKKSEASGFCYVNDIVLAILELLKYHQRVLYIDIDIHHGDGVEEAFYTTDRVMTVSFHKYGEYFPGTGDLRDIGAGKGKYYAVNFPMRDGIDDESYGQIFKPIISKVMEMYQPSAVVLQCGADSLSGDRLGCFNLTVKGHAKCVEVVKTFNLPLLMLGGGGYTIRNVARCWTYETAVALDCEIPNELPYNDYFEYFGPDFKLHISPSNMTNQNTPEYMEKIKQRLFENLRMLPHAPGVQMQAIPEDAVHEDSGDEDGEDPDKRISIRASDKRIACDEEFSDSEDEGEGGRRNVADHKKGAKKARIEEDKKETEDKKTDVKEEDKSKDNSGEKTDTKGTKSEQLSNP

Assays:
[1] = test system: A549 non-small cell lung carcinoma xenograft; test: A549 xenograft model; settings: 5 mg/kg i.p. every other day
HDAC2 = HDAC2 (Homo sapiens, UniProt Q92769); test: HDAC panel inhibition; settings: read-out: Calculated Inhibitory IC50, HDAC 2, unmasked thiol forms

Substance: Largazole thiol
- fatality [1]: one fatality occurred
- weight loss [1]: ~ 2%
- IC50 (HDAC2): 10.5 nM
